Experimental findings from patent US20140045779A1, “COMPOUNDS CONTAINING AN ALICYCLIE STRUCTURE AND ANTI-TUMOR APPLICATION” (priority 2011, published 2014) are described below.

For experiment [1], the system named is human pancreatic cancer cell line Panc-1. Kind of experiment: cells. To be noted: PANC-1, 48 h, read-out: Growth Inhibition of cell line IC50, Panc-1.
Experiment [2] has as its system human colorectal cancer cell line HT29. Kind of experiment: cells. To be noted: HT-29, 48 h, read-out: Growth Inhibition of cell line IC50, HT29.
Experiment [3] deals with human lung cancer cell line NCI-H460. Description: In vitro anti-cancer cell experiment (MTT), NCI-H460. To be noted: NCI-H460, 48 h, read-out: Growth Inhibition of cell line IC50, NCI-H460.

Values after ≈ are worked out from the molar mass of the structure shown.

As for `O=c1[nH]cc(F)c(=O)[nH]1` [Example 5-FU, 5-fluorouracil, reference compound], the IC50 (in general, the concentration needed to halve the response being measured) in experiment [1] was 3.33 µg/mL (≈ 25.6 µM).
Take `O=C1C2CC3CC(C2)OC1C3` (stereo not shown) [Example 43, 2-oxaadamantan-4-one]: the IC50 came out at 54.1 µg/mL (≈ 356 µM) in experiment [2], 26.8 µg/mL (≈ 176 µM) in experiment [1] and 13.7 µg/mL (≈ 89.7 µM) in experiment [3].
In the case of `OC12CC3CC(CC(C3)O1)C2` [Example 47, 2-oxaadamantan-1-ol], the IC50 was determined as 38.3 µg/mL (≈ 249 µM) in experiment [2], 17.6 µg/mL (≈ 114 µM) in experiment [1] and 17.2 µg/mL (≈ 112 µM) in experiment [3].
For `COc1cc(C23CN4CN(C2)CC(c2cc(OC)c(OC)c(OC)c2)(C4)C3=O)cc(OC)c1OC` [Example 62, (1r,3r,5r,7r)-5,7-bis(3,4,5-trimethoxyphenyl)-1,3-diazaadamantan-6-one] the same measures were 3.62 µg/mL (≈ 7.47 µM), 3.26 µg/mL (≈ 6.73 µM) and 4.89 µg/mL (≈ 10.1 µM).
For `CCCCCNC12CN3CN(CN(C3)C1)C2` [Example 68, (1s,3s,5s)-N-pentyl-1,3,5-triazaadamantan-7-amine] the same measures were 1.03 µg/mL (≈ 4.59 µM), 3.4 µg/mL (≈ 15.2 µM) and 3.38 µg/mL (≈ 15.1 µM).
